According to article PMC4057736, “In Vitro Antiprotozoal Activity of Abietane Diterpenoids Isolated from Plectranthus barbatus Andr” (International Journal of Molecular Sciences, 2014):

Experiments:
Conditions in all cases: versus MRC-5 cytotoxicity
[1] = test system: Chloroquine-resistant P. falciparum 2/K 1-strain (erythrocytic schizonts); test: Antiplasmodial activity (Malstat method); assay type: cell-based, Plasmodium falciparum
Experimental: (§1) The integrated panel of microbial screens and standard screening methodologies were adopted as previously described. All assays were performed in triplicate, at the Laboratory of Microbiology, Parasitology and Hygiene at the University of Antwerp, Belgium. […] The selectivity antiprotozoal potential was assessed by simultaneous evaluation of cytotoxicity on a fibroblast (MRC-5) cell line.
Chloroquine-resistant P. falciparum 2/K 1-strain was cultured in human erythrocytes O^+ at 37 °C under a low oxygen atmosphere (3% O2, 4% CO2, and 93% N2) in RPMI-1640, supplemented with 10% human serum. Infected human red blood cells (200 μL, 1% parasitaemia, 2% haematocrit) were added to each well and incubated for 72 h. After incubation, test plates were frozen at −20 °C. Parasite multiplication was measured by the Malstat method.

[2] = test system: Trypanosoma brucei Squib-427 strain (suramin-sensitive) trypomastigotes; test: Antitrypanosomal activity, resazurin readout; assay type: cell-based
Experimental: as §1
(§2) About 1.5 × 10^4 trypomastigotes/well were added to each well and parasite growth was assessed after 72 h at 37 °C by adding resazurin [30]. […] The color reaction was read at 540 nm after 4 h and absorbance values were expressed as a percentage of the blank controls.

[3] = test system: L.infantum MHOM/MA(BE)/67 amastigotes; test: Antileishmanial activity, intracellular amastigotes in primary peritoneal mouse macrophages; assay type: cell-based, Leishmania infantum
Experimental: as §1
L.infantum MHOM/MA(BE)/67 amastigotes were collected from the spleen of an infected donor hamster and used to infect primary peritoneal mouse macrophages. To determine in vitro antileishmanial activity, 3 × 10^4 macrophages were seeded in each well of a 96-well plate. After 2 days outgrowth, 5 × 10^5 amastigotes/well were added and incubated for 2 h at 37 °C. Pre-diluted plant extracts were subsequently added and the plates were further incubated for 5 days at 37 °C and 5% CO2. Parasite burdens (mean number of amastigotes/macrophage) were microscopically assessed after Giemsa staining, and expressed as a percentage of the blank controls without plant extract.

[4] = test system: T. cruzi Tulahuen CL2 (benznidazole-sensitive); test: Antitrypanosomal activity (Chagas), β-galactosidase readout on MRC-5 cells; assay type: cell-based, Trypanosoma cruzi
Experimental: as §1, §2

| SMILES | P. falciparum SI (selectivity index) [1] | T. brucei SI (selectivity index) [2] | L. infantum SI (selectivity index) [3] | T. cruzi SI (selectivity index) [4] |
| --- | --- | --- | --- | --- |
| CC(C)C1=CC2=C(O)C(O)=C3C(C)(C)CCC[C@]3(C)C2=C(O)C1=O [Compound (2), 5,6-didehydro-7-hydroxy-taxodone] | 10.4 | 50.5 | 3.7 | 3.7 |
| CC(C)c1cc2c(c(O)c1O)C13CCCC(C)(C)C1CC2OC3 (centres unmarked) [Compound (4), 20-deoxocarnosol] | – | 1.0 | – | – |
